## Ab-14 heavy chain CDR variants: yeast mating affinities

Antigen: PDVDLGDISGINAS, a 14-residue peptide of the SARS-CoV-2 spike HR2 region.

The variants keep the light chain, the linker and the frameworks of Ab-14 (scFv order VH, a 15-residue (Gly4Ser)3 linker, VL).
VH: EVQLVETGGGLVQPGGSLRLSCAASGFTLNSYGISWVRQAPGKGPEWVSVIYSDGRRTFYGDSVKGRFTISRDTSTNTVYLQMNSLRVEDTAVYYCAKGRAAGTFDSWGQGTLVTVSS
VL: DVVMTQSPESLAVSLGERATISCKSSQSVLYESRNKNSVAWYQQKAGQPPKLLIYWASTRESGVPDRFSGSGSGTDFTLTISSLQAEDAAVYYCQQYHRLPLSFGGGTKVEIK

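The parent was found by panning a naive human phage display library on the peptide. Library AAYL49 holds single substitutions and randomly drawn double and triple substitutions in the CDRs. In AlphaSeq, yeast of one mating type display the scFv and yeast of the other type display the target. Binding brings cells together so that they mate, and sequencing counts the barcode pairs among the diploids. Scores were corrected for input abundance and mapped to Kd with protein pairs of known affinity run in the same pool. Mating was done three times.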

Changes read parent residue, position, new residue, counted from the first residue of the VH shown. Numbers give log10(Kd / nM), so 0 is 1 nM and 3 is 1 µM. Smaller is tighter. A mean of the replicates is given; it leaves out those without a signal. "no signal" means that the variant was in the library but no mating with the target was seen in any replicate; the authors take this as a sign of poor binding, and no number exists. Background: pairings of library AAYL49 with three empty control strains gave a value in 15% of cases (median 4.06, 5th percentile 2.83). Values in that range, when seen in few replicates, are hard to tell from nonspecific mating. For reference, the parent read 0.65 as the reference entry and 4.11 (one replicate of three) as a member of this library.

"log10 Kd (nM), mean",detected,changes
3.63,1 of 3,V50E/G103F
1.08,3 of 3,K65R/D106R/S107N
2.87,1 of 3,D54F/K65Q/F105S
no signal,0 of 3,Y52I/D54T/V64S
4.18,3 of 3,L29N/Y52S/F59N
no signal,0 of 3,S35M/I51W/A102Y
4.43,2 of 3,G26R/D62I/V64D
4.50,2 of 3,F27I/I34C/F59H
no signal,0 of 3,N30A/Y32A/S63F
3.27,1 of 3,N30G/G103Y
3.69,1 of 3,N30C/T104L
2.86,1 of 3,Y52R/R56W/R100N
no signal,0 of 3,T28M/N30P/S31C
no signal,0 of 3,V50S/D54G/G61F
3.78,2 of 3,N30E/S35V/V64I
no signal,0 of 3,S53M/G55Y/G99N
no signal,0 of 3,L29N/I51G/D106H
no signal,0 of 3,N30V/S53K/V64L
no signal,0 of 3,Y32G/V50R/G61E
4.48,2 of 3,G55P/R57F/A101Q
3.67,1 of 3,G33R/S35T/S53E
3.27,1 of 3,V50E/Y52I/G55P
no signal,0 of 3,Y52F/G55N/T58Y
3.57,3 of 3,F27N/G99E/F105N
1.52,3 of 3,S63P/K65Y/R100N
no signal,0 of 3,F27W/N30G/V64E
2.63,3 of 3,N30C/G33D/K65S
no signal,0 of 3,R56D/Y60H/T104F
no signal,0 of 3,D54E/G99W
no signal,0 of 3,S35L/D62A/S63D
5.76,3 of 3,Y32D/G33V/G61K
no signal,0 of 3,L29F/V64I/G103W
no signal,0 of 3,N30F/Y32S/Y52Q
no signal,0 of 3,D54F/F59D
5.19,3 of 3,F27L/V50P/A102N
no signal,0 of 3,G26F/D106M
no signal,0 of 3,N30P/R57H/Y60W
no signal,0 of 3,T28V/G33K/G61P
no signal,0 of 3,V50T/G55N/T58H
no signal,0 of 3,G33R/D62F
no signal,0 of 3,G26P/I34A/Y52C
no signal,0 of 3,S53L/G55L/S63R
no signal,0 of 3,G33I/I34W/G103M
4.36,2 of 3,F27P/I34Y/R57L
no signal,0 of 3,G26C/D54W/A102N
no signal,0 of 3,S31Y/G55I/R56K
no signal,0 of 3,G33E/S107T
2.23,3 of 3,L29E/Y32K/T104H
4.94,1 of 3,V50A/G61A/G103C
no signal,0 of 3,G33V/R57I/S107F
4.53,2 of 3,R56C/R57L/T104N
no signal,0 of 3,G26C/Y60L
no signal,0 of 3,I51A/R57V/T58R
no signal,0 of 3,S53E/R57E/D62Y
2.90,1 of 3,I34V/Y60I/V64P
no signal,0 of 3,Y52I/Y60M/S107A
2.16,3 of 3,Y32P/G33K/G61A
3.33,1 of 3,T58K/G99M
no signal,0 of 3,G33H/Y60L/A101F
no signal,0 of 3,F27I/S63A/A102L
no signal,0 of 3,T28L/I51N/F105M
3.30,2 of 3,S31T/Y60L/G61P

From the AlphaSeq antibody data of Engelhart et al. 2022 (doi:10.1038/s41597-022-01779-4), copy in the FLAb collection.